Measurements from ChEMBL document CHEMBL3885881, “DrugMatrix”.

Legend:
Rattus norvegicus [1] = species on record: Rattus norvegicus; experiment: DrugMatrix - Regimen: Daily Repeat; format: toxicity, organism-based, Sprague-Dawley; set-up: regimen Daily Repeat, gender Male, age 6-8 weeks; conditions: in vivo
Rattus norvegicus [2] = species on record: Rattus norvegicus; format: toxicity, organism-based, Sprague-Dawley; conditions: in vivo, sc, 24 h, route mini-PUMP - SUBCUTANEOUS, time 1 day, vehicle 100 % SALINE
[3] = ip, 0 mg/kg, […], tissue Plasma, route intraperitoneal, dose level Control, time 14 day, vehicle 100 % SALINE
[4] = ip, 0 mg/kg, […], tissue Plasma, route intraperitoneal, dose level Control, time 28 day, vehicle 100 % SALINE
[5] = ip, 0.5 mg/kg, […], tissue Plasma, route intraperitoneal, dose level High, time 28 day, vehicle 100 % SALINE
[6] = po, 90 mg/kg, 72 h, tissue Plasma, route oral GAVAGE, dose level High, time 3 day, vehicle 100 % WATER
[7] = iv, 0 mg/kg, 72 h, tissue Plasma, dose level Control, time 3 day, vehicle 100 % SALINE
[8] = iv, 0 mg/kg, 120 h, tissue Plasma, dose level Control, time 5 day, vehicle 100 % SALINE
[9] = po, 0 mg/kg, 72 h, tissue Blood, route oral GAVAGE, dose level Control, time 3 day, vehicle .5 % CMC
[10] = po, 0 mg/kg, 120 h, tissue Blood, route oral GAVAGE, dose level Control, time 5 day, vehicle .5 % CMC
[11] = po, 3 mg/kg, 72 h, tissue Blood, route oral GAVAGE, dose level Low, time 3 day, vehicle .5 % CMC
[12] = po, 3 mg/kg, 120 h, tissue Blood, route oral GAVAGE, dose level Low, time 5 day, vehicle .5 % CMC
[13] = po, 250 mg/kg, 72 h, tissue Blood, route oral GAVAGE, dose level M1, time 3 day, vehicle .5 % CMC
[14] = po, 500 mg/kg, 72 h, tissue Blood, route oral GAVAGE, dose level High, time 3 day, vehicle .5 % CMC
[15] = […], tissue Blood, dose 0.77 mg/Kg, dose level High
[16] = […], tissue Plasma, dose 0.77 mg/Kg, dose level High
[17] = sc, 0 mg/kg, 72 h, tissue Blood, route mini-PUMP - SUBCUTANEOUS, dose level Control, time 3 day, vehicle 100 % SALINE
[18] = sc, 0 mg/kg, 72 h, tissue Plasma, route mini-PUMP - SUBCUTANEOUS, dose level Control, time 3 day, vehicle 100 % SALINE
[19] = sc, 0 mg/kg, 120 h, tissue Blood, route mini-PUMP - SUBCUTANEOUS, dose level Control, time 5 day, vehicle 100 % SALINE
[20] = sc, 0 mg/kg, 120 h, tissue Plasma, route mini-PUMP - SUBCUTANEOUS, dose level Control, time 5 day, vehicle 100 % SALINE
[21] = sc, 0 mg/kg, […], tissue Blood, route mini-PUMP - SUBCUTANEOUS, dose level Control, time 14 day, vehicle 100 % SALINE
[22] = sc, 0 mg/kg, […], tissue Plasma, route mini-PUMP - SUBCUTANEOUS, dose level Control, time 14 day, vehicle 100 % SALINE
[23] = sc, […], 72 h, tissue Blood, route mini-PUMP - SUBCUTANEOUS, dose 0.77 mg/Kg, dose level High, time 3 day, vehicle 100 % SALINE
[24] = sc, […], 72 h, tissue Plasma, route mini-PUMP - SUBCUTANEOUS, dose 0.77 mg/Kg, dose level High, time 3 day, vehicle 100 % SALINE
[25] = sc, […], 120 h, tissue Blood, route mini-PUMP - SUBCUTANEOUS, dose 0.77 mg/Kg, dose level High, time 5 day, vehicle 100 % SALINE
[26] = sc, […], 120 h, tissue Plasma, route mini-PUMP - SUBCUTANEOUS, dose 0.77 mg/Kg, dose level High, time 5 day, vehicle 100 % SALINE

## CISPLATIN
Rattus norvegicus [1]; [3]
  ALBUMIN: 4.05 G/DL
  URIC ACID: 1.57 mg/dL
Rattus norvegicus [1]; [4]
  CHLORIDE: 105.4 MEQ/L
Rattus norvegicus [1]; [5]
  ALBUMIN: 3.73 G/DL
  CHLORIDE: 105.11 MEQ/L

## STANNOUS FLUORIDE
Rattus norvegicus [1]; po, 9 mg/kg, 72 h, tissue Blood, route oral GAVAGE, dose level Low, time 3 day, vehicle 100 % WATER
  NEUTROPHIL: 9.33%
Rattus norvegicus [1]; po, 9 mg/kg, 120 h, tissue Blood, route oral GAVAGE, dose level Low, time 5 day, vehicle 100 % WATER
  NEUTROPHIL: 9.33%
Rattus norvegicus [1]; [6]
  CHLORIDE: 105 MEQ/L
  GLUCOSE: 161.67 mg/dL

## COc1cccc2c1C(=O)c1c(O)c3c(c(O)c1C2=O)C[C@@](O)(C(=O)CO)C[C@@H]3O[C@H]1C[C@H](N)[C@H](O)[C@H](C)O1 [DOXORUBICIN]
Rattus norvegicus [1]; [7]
  POTASSIUM: 5.7 MEQ/L
Rattus norvegicus [1]; [8]
  POTASSIUM: 5.45 MEQ/L
Rattus norvegicus [1]; iv, 3 mg/kg, 72 h, tissue Plasma, dose level High, time 3 day, vehicle 100 % SALINE
  POTASSIUM: 5.61 MEQ/L
Rattus norvegicus [1]; iv, 3 mg/kg, 120 h, tissue Plasma, dose level High, time 5 day, vehicle 100 % SALINE
  POTASSIUM: 5.07 MEQ/L
Rattus norvegicus [1]; iv, […], 72 h, tissue Plasma, dose 0.65 mg/Kg, dose level Low, time 3 day, vehicle 100 % SALINE
  POTASSIUM: 5.89 MEQ/L
Rattus norvegicus [1]; iv, […], 120 h, tissue Plasma, dose 0.65 mg/Kg, dose level Low, time 5 day, vehicle 100 % SALINE
  POTASSIUM: 5.17 MEQ/L

## CN1CCN2c3ccccc3Cc3ccccc3C2C1 (configuration not stated) [MIANSERIN]
Rattus norvegicus [1]; po, 10 mg/kg, 120 h, tissue Blood, route oral GAVAGE, dose level Low, time 5 day, […]
  ERYTHROCYTE COUNT: 5.73 x10E6/uL

## CARBOPLATIN
Rattus norvegicus [1]; [4]
  CHLORIDE: 105.4 MEQ/L
Rattus norvegicus [1]; iv, 6 mg/kg, 120 h, tissue Blood, dose level Low, time 5 day, vehicle 100 % SALINE
  HEMOGLOBIN: 13.4 G/DL

## NCCCC(O)(P(=O)(O)O)P(=O)(O)O [ALENDRONIC ACID]
Rattus norvegicus [1]; [9]
  HEMOGLOBIN: 14.58 G/DL
Rattus norvegicus [1]; [10]
  HEMOGLOBIN: 15.83 G/DL
Rattus norvegicus [1]; [11]
  HEMOGLOBIN: 13.73 G/DL
Rattus norvegicus [1]; [12]
  HEMOGLOBIN: 16.1 G/DL

## COc1cccc2c1C(=O)c1c(O)c3c(c(O)c1C2=O)C[C@@](O)(C(=O)CO)C[C@@H]3O[C@H]1C[C@H](N)[C@@H](O)[C@H](C)O1 [EPIRUBICIN]
Rattus norvegicus [1]; [7]
  POTASSIUM: 6.68 MEQ/L
Rattus norvegicus [1]; [8]
  POTASSIUM: 6.66 MEQ/L
Rattus norvegicus [1]; iv, […], 72 h, tissue Plasma, dose 0.27 mg/Kg, dose level Low, time 3 day, vehicle 100 % SALINE
  POTASSIUM: 6.47 MEQ/L
Rattus norvegicus [1]; iv, […], 72 h, tissue Plasma, dose 2.7 mg/Kg, dose level High, time 3 day, vehicle 100 % SALINE
  POTASSIUM: 6.52 MEQ/L
Rattus norvegicus [1]; iv, […], 120 h, tissue Plasma, dose 2.7 mg/Kg, dose level High, time 5 day, vehicle 100 % SALINE
  POTASSIUM: 6.39 MEQ/L

## CN1[C@@H]2CC[C@H]1C[C@@H](OC(=O)C(CO)c1ccccc1)C2 (some centres not stated) [ATROPINE]
Rattus norvegicus [1]; po, 0 mg/kg, 72 h, tissue Blood, route oral GAVAGE, dose level Control, time 3 day, vehicle 100 % WATER
  MONOCYTE: 0.67%
Rattus norvegicus [1]; po, 0 mg/kg, 120 h, tissue Blood, route oral GAVAGE, dose level Control, time 5 day, vehicle 100 % WATER
  MONOCYTE: 1.83%
Rattus norvegicus [1]; po, 94 mg/kg, 72 h, tissue Blood, route oral GAVAGE, dose level High, time 3 day, vehicle 100 % WATER
  MONOCYTE: 0.33%
Rattus norvegicus [1]; po, 94 mg/kg, 120 h, tissue Blood, route oral GAVAGE, dose level High, time 5 day, vehicle 100 % WATER
  MONOCYTE: 1%
Rattus norvegicus [1]; po, […], 120 h, tissue Blood, route oral GAVAGE, dose 2.3 mg/Kg, dose level Low, time 5 day, vehicle 100 % WATER
  MONOCYTE: 1%

## CCN(CC)CCOc1ccc(/C(=C(/Cl)c2ccccc2)c2ccccc2)cc1 [ENCLOMIPHENE]
Rattus norvegicus [1]; [9]
  ABSOLUTE MONOCYTE: 0 CELLS/uL
  HEMOGLOBIN: 13.45 G/DL
  LEUKOCYTE COUNT: 16.17 x10E3/uL
Rattus norvegicus [1]; po, 0 mg/kg, 72 h, tissue Plasma, route oral GAVAGE, dose level Control, time 3 day, vehicle .5 % CMC
  LIPASE: 9.5 u/L
Rattus norvegicus [1]; [10]
  ABSOLUTE MONOCYTE: 29.17 CELLS/uL
  HEMOGLOBIN: 13.4 G/DL
Rattus norvegicus [1]; po, 0 mg/kg, 120 h, tissue Plasma, route oral GAVAGE, dose level Control, time 5 day, vehicle .5 % CMC
  LIPASE: 8.67 u/L
Rattus norvegicus [1]; [11]
  HEMOGLOBIN: 14.2 G/DL
Rattus norvegicus [1]; po, 3 mg/kg, 72 h, tissue Plasma, route oral GAVAGE, dose level Low, time 3 day, vehicle .5 % CMC
  LIPASE: 8.67 u/L
Rattus norvegicus [1]; [12]
  ABSOLUTE MONOCYTE: 173.67 CELLS/uL
  HEMOGLOBIN: 14.97 G/DL
Rattus norvegicus [1]; po, 3 mg/kg, 120 h, tissue Plasma, route oral GAVAGE, dose level Low, time 5 day, vehicle .5 % CMC
  LIPASE: 7.67 u/L
Rattus norvegicus [1]; [13]
  ABSOLUTE MONOCYTE: 0 CELLS/uL
  HEMOGLOBIN: 15.4 G/DL
Rattus norvegicus [1]; po, 250 mg/kg, 72 h, tissue Plasma, route oral GAVAGE, dose level M1, time 3 day, vehicle .5 % CMC
  LIPASE: 9 u/L
Rattus norvegicus [1]; po, 250 mg/kg, 120 h, tissue Blood, route oral GAVAGE, dose level M1, time 5 day, vehicle .5 % CMC
  ABSOLUTE MONOCYTE: 0 CELLS/uL
Rattus norvegicus [1]; po, 250 mg/kg, 120 h, tissue Plasma, route oral GAVAGE, dose level M1, time 5 day, vehicle .5 % CMC
  LIPASE: 7 u/L
Rattus norvegicus [1]; [14]
  ABSOLUTE MONOCYTE: 282 CELLS/uL
  HEMOGLOBIN: 15.87 G/DL

## CNCC(O)c1ccc(O)c(O)c1 (configuration not stated) [RACEPINEPHRINE]
Rattus norvegicus [2]; 0 mg/kg, tissue Blood, dose level Control
  HEMATOCRIT: 34.52%
Rattus norvegicus [2]; 0 mg/kg, tissue Plasma, dose level Control
  GLUCOSE: 179.83 mg/dL
Rattus norvegicus [2]; [15]
  EOSINOPHIL: 0.33%
  MONOCYTE: 2%
Rattus norvegicus [2]; [16]
  ALANINE AMINOTRANSFERASE: 51 u/L
  ASPARTATE AMINOTRANSFERASE: 89 u/L
  CARBON DIOXIDE: 28.33 mmol/L
Rattus norvegicus [1]; [17]
  HEMATOCRIT: 36.95%
  MONOCYTE: 2%
  NEUTROPHIL: 10.33%
Rattus norvegicus [1]; [18]
  GLUCOSE: 136.83 mg/dL
  URIC ACID: 1.4 mg/dL
Rattus norvegicus [1]; [19]
  HEMATOCRIT: 36.22%
  NEUTROPHIL: 17.67%
Rattus norvegicus [1]; [20]
  CREATININE: 0.16 mg/dL
  GLUCOSE: 152.67 mg/dL
  TOTAL BILIRUBIN: 0.17 mg/dL
  URIC ACID: 1.27 mg/dL
Rattus norvegicus [1]; [21]
  HEMATOCRIT: 35.4%
  MONOCYTE: 2.17%
Rattus norvegicus [1]; [22]
  GLUCOSE: 182.33 mg/dL
  URIC ACID: 1.38 mg/dL
Rattus norvegicus [1]; [23]
  EOSINOPHIL: 0.33%
  LYMPHOCYTE: 85%
  MONOCYTE: 2%
  NEUTROPHIL: 12.67%
Rattus norvegicus [1]; [24]
  CREATININE: 0.16 mg/dL
  GLUCOSE: 165.67 mg/dL
  URIC ACID: 1.97 mg/dL
Rattus norvegicus [1]; [25]
  HEMATOCRIT: 35.43%
  MONOCYTE: 3%
  NEUTROPHIL: 22%
Rattus norvegicus [1]; [26]
  BLOOD UREA NITROGEN: 13.67 mg/dL
  CARBON DIOXIDE: 28.33 mmol/L
  CHLORIDE: 102.67 MEQ/L
  GLUCOSE: 146.33 mg/dL
